Results on two compounds are retold here after PubChem BioAssay AID652260 (The Scripps Research Institute Molecular Screening Center, 2013).

Molecules are shown by their SMILES. The list shows a part of the results, in another mix than the full data. The source made the active and inactive calls.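 Rule for the calls: active = activation above its plate's cutoff, the mean activation of tested wells plus 3 SD (cut at about 7.9% in these data); inactive = the rest.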

A short description of this experiment: BRM-dependent MMTV reporter reactivation – cell-based, luminescence, triplicate, confirmation (AID 652260). As to conditions: MG213 cells, MMTV-luciferase with dexamethasone, overnight, at 9.1 µM, stronger effect = higher value, DMSO wells 0%, reference activator 100%, MG213 cells expressing E1A, Rb sequestered. The method in brief: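 material = MG213 cells (E1A-transduced) carrying MMTV-luciferase reporter | amount = 600 cells in each well | probe or stimulus = 0.1 µM dexamethasone stimulus | dosing = 9.1 µM single dose | timing = one-day dexamethasone pre-induction, 24 h compound exposure at 37 °C | detection = OneGlo luciferase luminescence after 15 min at room temperature | evaluation = normalized percent activation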
As for `O=C(O)c1cccc(Nc2c([N+](=O)[O-])cc([N+](=O)[O-])cc2[N+](=O)[O-])c1`, the activation was inactive: -2.3%.

For `CN(C)C(=O)c1c([N+](=O)[O-])cc([N+](=O)[O-])cc1[N+](=O)[O-]`, the activation is inactive: 6.43%.
